The subject of this test is COS cells. The test is described as follows: Cell death of COS cells transfected with Ice-lacZ / Ich-1L-lacZ / proIL-1β, round blue cells scored. The test is classed as cell-based. The protocol: COS cells were plated (2×10^4) in 6-well plates in DMEM with 10% FCS. After 12 hours the wells were washed with serum and antibiotic free medium, and transfected using lipofectamine with either Ice-lacZ, Ich-1L-lacZ, βactin-lacZ(1 μg) or with proIL-1β (0.5 μg) for 3 hours. The sequence for Ich-1L is shown in FIG. 7 and the sequences of human ICE and pro- IL-1β are found respectively in Thornsberry et al., Nature 356:768-774 (1992) and in J. Immunol. 137:3644-3648, 1986. The medium was then removed and DMEM with 10% FCS added. IL-1Ra (40 ng/ml) was then added to the appropriate wells, and after one hour IL-1β (100 ng/ml) was added. X-gal reaction was performed 36 hours following the transfection and percentage of round blue (dead) cells were scored (Miura, M., et al., Cell 75: 653 (1993))

For TNF-α: pleiotropic tumoricidal cytokine, for the setting “COS cells without Ice/Ich-1L transfection”, the “Induction of apoptosis in COS cells by the exogenous cytokine alone” value is “did not induce apoptosis”. Moreover, the “Induction of cell death in Ice-lacZ or Ich-1L-lacZ transfected COS cells” value (extracellular cytokine, 36 hours after transfection) is “efficiently induced cell death”.

Source of the values: patent publication US6416753B1, “Method for modulating apoptosis” (The General Hospital Corporation, priority 1996, dated 2002).
